Experimental data taken from patent US11179341B2, “Self-righting articles” (priority 2017, dated 2021).

Settings: micropost tips 40% G6PD and 60% PEO 200 k, versus uncompressed powder
Procedure: To perform the activity assay on G6PD, an activity assay kit (Sigma Aldrich) was used which measures the amount of oxidized glucose-6-phosphate. […] Duplicate assays were performed on the dissolved solution.

## glucose-6-phosphate dehydrogenase
  glucose-6-phosphate dehydrogenase activity after the manufacturing process: maintain their activity
